Experimental data taken from ChEMBL document CHEMBL5214967, “Natural Product-Inspired Targeted Protein Degraders: Advances and Perspectives” (J Med Chem, 2022).

Assay: Binding affinity to Mycobacterium smegmatis ClpC assessed as dissociation constant by MicroCal PEAQ-ITC instrument analysis

Question: For `CC(=O)N[C@@H](CCCNC(=N)NP(=O)(O)O)C(=O)NCCOCCOCCC(=O)NCCOCCOCCC(=O)NCCOCCOCCC(=O)N[C@@H](CCCCNC(=O)CCCC[C@@H]1SC[C@@H]2NC(=O)N[C@@H]21)C(N)=O`, which Kd is on record?
Answer: The Kd was 2800 nM.
